Chains of the proteins cited; added tags and fusions are not shown. Residues count along the entry.
UniProt Q13451, 42-130 limits assumed: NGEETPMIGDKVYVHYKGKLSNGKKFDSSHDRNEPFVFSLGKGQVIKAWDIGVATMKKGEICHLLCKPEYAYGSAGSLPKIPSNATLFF
UniProt P68106, whole entry: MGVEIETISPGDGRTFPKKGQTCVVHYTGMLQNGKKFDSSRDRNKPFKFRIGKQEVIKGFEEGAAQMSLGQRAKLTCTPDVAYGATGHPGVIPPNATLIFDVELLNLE
UniProt P62942, whole entry: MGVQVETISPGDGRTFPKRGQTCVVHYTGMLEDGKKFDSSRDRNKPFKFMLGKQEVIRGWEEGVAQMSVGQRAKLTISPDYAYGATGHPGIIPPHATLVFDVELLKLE

According to patent publication US11834463B2, “High affinity macrocyclic FKB51-inhibitors for treatment of psychiatric disorders” (priority 2020, dated 2023):

Experiments:
FKBP51FK1 = FKBP51FK1 (Homo sapiens, UniProt Q13451)
FKBP12.6 = FKBP12.6 (Homo sapiens, UniProt P68106); assay: competitive fluorescence polarization assay, binding to FKBP12.6; details: read-out: Ki [nM] FKBP12.6; Table 1, competitive Fluorescence Polarization Assay
FKBP12 = FKBP12 (Homo sapiens, UniProt P62942); assay: competitive fluorescence polarization assay, binding to FKBP12; details: read-out: Ki [nM] FKBP12; Table 1, competitive Fluorescence Polarization Assay

Structure (SMILES) | Ki (FKBP51FK1) [µM] | Ki (FKBP12.6) [nM] | Ki (FKBP12) [nM]
COc1ccc(CC[C@H]2OC(=O)[C@@H]3CCCCN3C(=O)[C@@H](C3CCCCC3)c3cc(OC)c(OC)c(c3)OCCC(=O)COc3cccc2c3)cc1OC | 0.01 | 28 | 54
COc1ccc(CC[C@H]2OC(=O)[C@@H]3CCCCN3C(=O)[C@@H](C3CCCCC3)c3cc(OC)c(c(OC)c3)OCCCOC/C=C/COc3cccc2c3)cc1OC | 0.094 | 315 | 430
COc1ccc(CC[C@H]2OC(=O)[C@@H]3CCCCN3C(=O)[C@@H](C3CCCCC3)c3cc(OC)c(c(OC)c3)OCCC(=O)COc3cccc2c3)cc1OC | 0.008 | 30 | 53
COc1ccc(CC[C@H]2OC(=O)[C@@H]3CCCCN3C(=O)[C@@H](C3CCCCC3)c3cc(OC)c(c(OC)c3)OCCCOCCCCOc3cccc2c3)cc1OC | 0.07 | 187 | 350
